## Measured affinities in a library of Ab-14 light chain variants

From the AlphaSeq antibody data of Li et al. 2023 (doi:10.1038/s41467-023-39022-2), copy in the FLAb collection.

Target: peptide PDVDLGDISGINAS, taken from heptad repeat 2 (HR2) of SARS-CoV-2 spike.

Parent: Ab-14, a human scFv built as VH, a 15-residue (Gly4Ser)3 linker, VL. Only the CDRs of the light chain vary.
VH: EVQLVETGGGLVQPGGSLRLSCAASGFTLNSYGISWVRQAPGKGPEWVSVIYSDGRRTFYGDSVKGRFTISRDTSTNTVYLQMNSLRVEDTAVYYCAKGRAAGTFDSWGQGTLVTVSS
VL: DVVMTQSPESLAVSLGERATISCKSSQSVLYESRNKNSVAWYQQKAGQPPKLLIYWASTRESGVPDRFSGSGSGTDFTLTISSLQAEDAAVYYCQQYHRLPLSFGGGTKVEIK

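Phage display of a naive human antibody library on the peptide gave the parent. This is the validation round: designs drawn from the data on random variants, tested in the same kind of assay. Group labels follow the data file (Ctrl: baseline library sampled from a position-specific scoring matrix, with some repeated check sequences; En: ensemble of fine-tuned language models; GP: Gaussian process model; GPLM: also part of the Gaussian process libraries; HC: hill climbing; Gen: genetic algorithm; Gibbs: Gibbs sampling; a sequence that several methods proposed may carry one label only). The scFvs were displayed on barcoded MATa yeast, the peptide on MATalpha yeast. The frequency of each diploid, read from paired DNA barcodes, reflects how well the two displayed proteins bind. The ratio of observed to expected reads was calibrated, replicate by replicate, on BCL2-family standards whose Kd was known from biolayer interferometry. Mating was done six times.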

The parent's light chain CDRs are KSSQSVLYESRNKNSVA, WASTRES, QQYHRLPLS; each variant's own CDRs replace them letter for letter.
Values are apparent Kd, the geometric mean of the replicates that gave a signal; lower means stronger binding.
"no signal" marks a missing value. The strain was present, yet no cells mated with the target were sequenced in any replicate, which points to weak or no binding.
The authors' rule: three or more of the six replicates give a measured affinity, fewer mean a poor binder.
Of ten entries with the parent sequence, four were seen in most replicates (averages 2.2 nM to 240 nM), three in one and three in none, so single entries are noisy.
Some sequences occur more than once in the pool; their replicates are pooled.
Background: pairings of all light chain designs with three empty control strains gave a value in 4% of cases (median 430 nM, 5th percentile 38 nM). Values in that range, when seen in few replicates, are hard to tell from nonspecific mating. The control count says in how many pairings with the empty strains this scFv gave a signal.
A sequence measured in both rounds can read differently, since the two assays cover different ranges.

| # | CDR-L1 | CDR-L2 | CDR-L3 | group | apparent Kd | detected | control signals |
|---|---|---|---|---|---|---|---|
| 1 | NLQLQPREGAQAQNSIA | DVSEADM | QHYARLPLT | En_Gibbs | no signal | 0/6 | 0/18 |
| 2 | HMQNEWQGNSRAENNVA | EGTVVCD | QQYATLPLQ | En_Gibbs | 19 nM | 6/6 | 0/18 |
| 3 | KSSQSVLYESRNKNSVA | EASTREA | QQYHRLPLS | Ctrl | 3.7 nM | 6/6 | 0/18 |
| 4 | KSEQSVLYESTNKNSVA | WASTAES | QQYHRLPTS | Ctrl | no signal | 0/6 | 1/18 |
| 5 | KFSQSVLNESRNKNSVA | DASTRES | QQYHRLPLS | GP_HC | 920 pM | 6/6 | 1/18 |
| 6 | KLSGSDLYQSRNSNAVA | EASQREQ | QQYHRLPLS | GP_Gibbs | 1.6 nM | 6/6 | 0/18 |
| 7 | KLRISTHIESFNKNNVA | EMTTRES | QSYDRLPLS | En_HC | 60 nM | 2/6 | 0/18 |
| 8 | KAQQSVLYESRNKNNVA | HASTRED | QQYHRLPLS | GP_HC | 1.9 nM | 6/6 | 0/18 |
| 9 | HITYGMYVAGRHSSSIA | QAETRAK | QQYDRLPLM | En_Gen | 9.1 nM | 6/6 | 0/18 |
| 10 | TISQMLLMQTSHKNSVA | GEETRYS | QQYHRLPLS | En_HC | 6.1 nM | 6/6 | 0/18 |
| 11 | KMSQSVLLESRNWNAVA | MASTRMD | QQYHRLPLS | GP_Gibbs | 2.3 nM | 6/6 | 1/18 |
| 12 | KSQQSVLYESRNKNSVA | YASTRES | QSYHRLPLS | Ctrl | 110 nM | 6/6 | 1/18 |
| 13 | KLSQSVDYESRQKNSVA | NAQTRLS | QQYHRLPLS | GP_Gibbs | 1.2 nM | 6/6 | 0/18 |
| 14 | KVSQSVLYESRNKNSVA | QASQRES | QQYHRLPLS | GP_Gen | no signal | 0/6 | 0/18 |
| 15 | NMQMQDDLMLNAKQNVA | GVDMRLE | QQYFRLPLL | En_Gibbs | 3.4 nM | 6/6 | 0/18 |
| 16 | ALSDWEWAGEENINRIA | DRSALEW | QQYGRLPLS | En_Gibbs | 8.9 nM | 6/6 | 0/18 |
| 17 | KLEQGFLYEERNKNSVA | HASQRES | QQYHRLPLS | GP_Gibbs | 500 pM | 6/6 | 1/18 |
| 18 | NLTTGYRQGALNTDSVA | HGNMRCA | QQYYRLPLS | En_Gibbs | 1.5 nM | 6/6 | 0/18 |
| 19 | KLEFLHLYESRNKNSVA | QASTRES | QQYHRLPLS | GP_Gibbs | 1.8 nM | 6/6 | 0/18 |
| 20 | KVGQMTALESRNLNSVA | QMDTRES | QQYHRLPLS | En_HC | 1.1 nM | 6/6 | 1/18 |
| 21 | KSSQSVLYMSRNFNSVA | WASTRES | QQYTRLPLS | Ctrl | 9.5 nM | 1/6 | 0/18 |
| 22 | KSSQSEFYESRNKNSVA | WASTRES | QQYHRLPLS | Ctrl | 310 nM | 4/6 | 0/18 |
| 23 | KLQQSVLYESRNKNSVA | NASTREQ | QQYHRLPLS | GP_Gen | 580 pM | 6/6 | 1/18 |
| 24 | KSSISLLYESRNTNSVA | EASTRES | QQYHRLPLS | GP_HC | 6.2 nM | 6/6 | 0/18 |
| 25 | VMQIQSDGMLNAKHNVA | GVDMRLE | QHYFRLPLL | En_Gibbs | 21 nM | 6/6 | 3/18 |
| 26 | KFSQSVLYESTTWNSVA | NASTRES | QQYHRLPLS | GP_HC | 1.9 nM | 6/6 | 0/18 |
| 27 | KLQQSWLYESRNKNSVA | HASQRES | QQYHRLPLS | GP_Gen | 1.7 nM | 6/6 | 0/18 |
| 28 | KSSISFLYESRNTNSVA | EASTRES | QQYHRLPLS | GP_HC | 2.0 nM | 6/6 | 0/18 |
| 29 | KSSQSVLFESNNKNSVA | WASTRES | QQYHRLPLS | Ctrl | 16 nM | 6/6 | 3/18 |
| 30 | KSSQPVLYESRNKNSVA | AASTRES | QQYHRLPLR | Ctrl | no signal | 0/6 | 0/18 |
| 31 | KFSQSQLYESRMKNSVA | NASQRES | QQYHRLPLS | GP_Gen | 1.0 nM | 6/6 | 0/18 |
| 32 | KLEQSHLYESRNKNNVA | NASTRES | QQYHRLPLS | GP_Gen | 1.2 nM | 6/6 | 3/18 |
| 33 | KLMQSVLYESRNKNSVA | HASQRED | QQYHRLPLS | GP_HC | 1.3 nM | 6/6 | 0/18 |
| 34 | IIDAIMFHGLKNASSIA | QASERLN | QQYHHLPLT | En_Gen | 200 nM | 6/6 | 1/18 |
| 35 | NSSQSWLYESRNKNSVA | GGNTRED | QQYHRLPLS | GP_HC | 4.5 nM | 6/6 | 0/18 |
| 36 | QLGRNQVGETLMQDAIA | HDALRAD | QQYFRLPLL | En_Gibbs | 7.2 nM | 6/6 | 0/18 |
| 37 | KVEQLHLYESRNKNAVA | QGSTRES | QQYHRLPLS | GP_Gibbs | 3.2 nM | 6/6 | 0/18 |
| 38 | WLSMSVEYQSRNKNAVA | SASTRES | QQYHRLPLS | GP_Gibbs | 1.0 nM | 6/6 | 0/18 |
| 39 | KTPPSVMYESRNKRSVA | SAYTRES | QQYHRLPLS | Ctrl | 31 nM | 3/6 | 0/18 |
| 40 | KSSQSVLYESRNKNSVA | AASTRES | QQYHRLPLP | Ctrl | 8.7 nM | 5/6 | 0/18 |
| 41 | KITQMVTGEMHNKNSIA | QMTTREG | QQYHRLPLS | En_HC | 3.0 nM | 6/6 | 1/18 |
| 42 | MVSQLMLWGLHAKNSIA | EAVTRYN | QQYDRLPLF | En_Gen | 130 nM | 6/6 | 1/18 |
| 43 | HSSQSVLYESRNKNSVA | NASTRES | QQYHRLPLS | Ctrl+GPLM_HC | 13 nM | 12/12 | 1/36 |
| 44 | YVSGDLAEGWNQQEAVA | HVSYKED | QQYYKLPLS | En_Gibbs | 26 nM | 1/6 | 0/18 |
| 45 | QIEWYNSGLTEAKNSVA | GVEHRMN | QQYMRLPLE | En_Gibbs | 850 pM | 6/6 | 0/18 |
| 46 | KSGTGDLYESRNKNSVA | GASTRES | QQYHRLPLS | GP_HC | 610 pM | 6/6 | 0/18 |
| 47 | MIHESMGLMSHKQSSIA | DNSTRED | QQYDRLPLS | En_Gen | no signal | 0/6 | 1/18 |
| 48 | KSSQEQLYENRMINSVA | DASLRES | QQYHRLPLS | GP_Gibbs | 900 pM | 6/6 | 0/18 |
| 49 | KIGQQVTYESTNKNAIA | QMTTREE | QQYHHLPLS | En_HC | 1.5 nM | 6/6 | 4/18 |